Yeast mating assay 1: variants of the scFv Ab-14

Source: Engelhart et al. 2022 (doi:10.1038/s41597-022-01779-4), MIT Lincoln Laboratory and A-Alpha Bio; data file from the FLAb repository.

Antigen: PDVDLGDISGINAS, a 14-residue peptide of the SARS-CoV-2 spike HR2 region.

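The library (AAYL50) carries one to three amino acid substitutions per variant, with no insertions or deletions. Affinity was read by AlphaSeq, a pooled yeast mating assay with surface-displayed partners. Mating (16 h, 30 °C) was followed by selection of diploids and sequencing of their barcodes. The ratio of observed to expected reads was calibrated, replicate by replicate, on BCL2-family standards whose Kd was known from biolayer interferometry. There are three technical replicates.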

Parent scFv Ab-14: VH joined to VL by three GGGGS repeats. Changes lie in the light chain CDRs alone.
VH: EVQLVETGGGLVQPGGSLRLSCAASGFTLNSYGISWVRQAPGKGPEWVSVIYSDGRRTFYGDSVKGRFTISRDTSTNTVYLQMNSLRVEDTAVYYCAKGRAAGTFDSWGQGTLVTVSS
VL: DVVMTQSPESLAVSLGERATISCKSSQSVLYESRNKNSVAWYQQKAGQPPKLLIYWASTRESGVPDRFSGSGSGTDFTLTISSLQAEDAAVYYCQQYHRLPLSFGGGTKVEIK

Each variant is given by its three light chain CDRs, as the data file delimits them; those of the parent are KSSQSVLYESRNKNSVA, WASTRES, QQYHRLPLS. Scale: log10 of Kd in nM, estimated from mating counts; low values are strong binders. The mean shown is taken over the replicates in which the pair was detected. "nd" marks a missing value. The strain was present, yet no cells mated with the target were sequenced in that replicate, which points to weak or no binding. Three control strains display no target. For library AAYL50, 18% of the pairings with them gave a signal, with a median of 4.19 and one signal in twenty below 2.99, so weak values seen in few replicates may be background. The control count says in how many pairings with the empty strains this scFv gave a signal.

The variant KSSQSVLYESCNKNSYA | WASTRES | QQYHRLPQS showed nd, 3.79, 4.84 (mean 4.31; controls 5 of 9).
The variant KSSQSVLYESRNKNSVA | WASTREQ | QMYHRLGLS showed 1.19, 1.09, 1.47 (mean 1.25; controls 0 of 9).
The variant KSSQPVLYESRNKNSVA | WASTRAS | QQYHRLPNS showed 2.64, 2.34, 2.55 (mean 2.51; controls 5 of 9).
The variant KSCQSVLCESRNKNSVA | WASTREL | QQYHRLPLS showed 2.20, 1.86, 2.18 (mean 2.08; controls 3 of 9).
The variant KSSQSVLYERRNKNSVA | WASTRES | QQYVRCPLS showed nd, 3.70, nd (controls 3 of 9).
The variant LSSQSVLYESRNKNSLY | WASTRES | QQYHRLPLS showed nd, 3.75, nd (controls 0 of 9).
The variant KSSQSVLYESRNKNSVA | WASTRES | QLCHRLPLY showed nd, nd, nd (controls 0 of 9).
The variant KSSQSVLYEWRNKNSVA | AASTRES | QQYHRLPLG showed 0.23, 0.61, 0.40 (mean 0.41; controls 2 of 9).
The variant KSSQSVLRESWNKNSVH | WASTRES | QQYHRLPLS showed nd, nd, nd (controls 0 of 9).
The variant NSSQGVLYESRNKNSVA | YASTRES | QQYHRLPLS showed 1.40, 1.50, 1.83 (mean 1.58; controls 0 of 9).
The variant KDSQNVLYESRNKNSVA | WASTRES | QQYHNLPLS showed nd, nd, nd (controls 0 of 9).
The variant KSSQSVLYESRNKNSVK | WAFTRES | QQMHRLPLS showed nd, nd, 4.85 (controls 3 of 9).
The variant KSSQSVLYVSRNKNMVA | WSSTRES | QQYHRLPLS showed 3.68, nd, nd (controls 0 of 9).
The variant KSSVSVLYESRNKNSVV | WASTRES | QQYHRLPPS showed nd, 2.68, nd (controls 0 of 9).
The variant KSSQSVLYESRHKNSVT | WASTRES | QFYHRLPLS showed nd, nd, nd (controls 2 of 9).
The variant KFSQSVLYESRNKNSVA | WASTRES | QQLHRLPLS showed 0.84, 0.83, 0.89 (mean 0.85; controls 4 of 9).
The variant KSCQSVLYESRNKNSVA | WASTKEM | QQYHRLPLS showed 3.41, 3.09, 4.20 (mean 3.56; controls 3 of 9).
The variant KSSQSVLTESRNKNSVA | WASTRQS | QQYHRLHLS showed nd, nd, nd (controls 1 of 9).
The variant KSSQSVLYESRNKNSVA | WASMRER | QQYERLPLS showed 1.00, 1.07, 1.16 (mean 1.07; controls 3 of 9).
The variant KSSQSVLYESRNDNSVA | WASTRES | QYYHRLTLS showed 3.40, nd, nd (controls 2 of 9).
The variant KSSQSVLYESRNKNSVA | WTSSRES | QQAHRLPLS showed 2.70, 2.50, nd (mean 2.60; controls 0 of 9).
The variant KSSQSVLYESRNKNSNY | WASTRES | QQYHRLPRS showed nd, 3.77, nd (controls 3 of 9).
The variant KSSGSVCYESRNKNSVA | WASTRES | QQYHRLPMS showed 2.52, 2.54, 3.80 (mean 2.95; controls 0 of 9).
The variant KVSQSVLYESRNKNSIA | WASTRES | QQYHRLPES showed 2.09, 1.99, 2.14 (mean 2.07; controls 4 of 9).
The variant KSSQEVLYESLNKNSVA | WASTRES | QQYHRLPLS showed nd, nd, nd (controls 3 of 9).
The variant KSYQSVLYESRNKNSVA | WASTEES | QQYHRLPLS showed nd, nd, nd (controls 0 of 9).
The variant KSSQSVLAESRNKNSVA | WASTRRS | CQYHRLPLS showed 1.84, 1.92, 1.75 (mean 1.84; controls 0 of 9).
The variant KSSQSVLYECRNKNSCA | WASCRES | QQYHRLPLS showed nd, nd, 4.44 (controls 2 of 9).
The variant KSSQSVLYESRNKNSMA | SASTREY | QQYHRLPLS showed 0.06, 0.38, 0.16 (mean 0.20; controls 6 of 9).
The variant KSSQSVLYESRDKNSVA | WASTRES | QEYHRSPLS showed nd, nd, nd (controls 0 of 9).
The variant KSSQSVIYEQRNKNSVA | WASTRES | DQYHRLPLS showed nd, 4.82, 5.02 (mean 4.92; controls 4 of 9).

For reference, 2 entries of the list once more:

| CDR-L1 | CDR-L2 | CDR-L3 | log10 Kd, replicates | mean, log10 nM | signal with controls |
|---|---|---|---|---|---|
| KSCQSVLYESRNKNSVA | WASTKEM | QQYHRLPLS | 3.41, 3.09, 4.20 | 3.56 | 3 of 9 |
| KSSQSVLYESRNKNSVA | WASTREQ | QMYHRLGLS | 1.19, 1.09, 1.47 | 1.25 | 0 of 9 |